US8962608B2, “Cycloalkylnitrile pyrazole carboxamides as janus kinase inhibitors” (Merck Sharp & Dohme Corp., priority 2011, dated 2015)

The chains behind the UniProt entries cited, without tags or fusion partners. Residues count along the entry.
UniProt P23458, 875-1153: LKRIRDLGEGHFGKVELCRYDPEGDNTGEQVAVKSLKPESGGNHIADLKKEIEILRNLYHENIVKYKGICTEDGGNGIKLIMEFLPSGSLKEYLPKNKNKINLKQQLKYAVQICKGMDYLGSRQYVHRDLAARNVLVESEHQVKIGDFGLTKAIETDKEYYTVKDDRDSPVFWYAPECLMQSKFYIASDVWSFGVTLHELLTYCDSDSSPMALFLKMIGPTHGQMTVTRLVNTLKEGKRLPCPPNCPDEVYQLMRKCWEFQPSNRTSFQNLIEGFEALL
UniProt O60674, 849-1124: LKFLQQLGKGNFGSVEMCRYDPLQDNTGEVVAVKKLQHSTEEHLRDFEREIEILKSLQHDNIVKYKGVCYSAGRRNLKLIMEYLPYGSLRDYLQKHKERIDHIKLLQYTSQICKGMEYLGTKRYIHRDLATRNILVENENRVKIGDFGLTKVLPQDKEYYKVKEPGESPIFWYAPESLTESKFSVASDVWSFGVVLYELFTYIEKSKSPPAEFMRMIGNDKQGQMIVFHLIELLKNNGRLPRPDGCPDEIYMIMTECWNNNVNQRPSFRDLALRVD

How the values were obtained:
[1] = biological target: JAK1 (recombinant purified GST-tagged catalytic domain) (Homo sapiens (Human), UniProt P23458); assay: biochemical;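 also: biochemical assay with HTRF read-out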
[2] = biological target: JAK2 (recombinant purified GST-tagged catalytic domain) (Homo sapiens (Human), UniProt O60674); assay: biochemical;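 also: biochemical JAK kinase assay with HTRF detection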

SMILES | IC50 [1] [nM] | IC50 [2] [nM]
CC1(c2ccc(Nc3nn([C@H]4CC[C@H](O)C[C@@H]4C#N)cc3C(N)=O)cc2)COC1 (single isomer, unassigned) [Example 33-19, 1-[(1S,2S,4S or 1R,2R,4R)-2-cyano-4-hydroxycyclohexyl]-3-{[4-(3-methyloxetan-3-yl)phenyl]amino}-1H-pyrazole-4-carboxamide] | 1 | 4
N#C[C@H]1C[C@@H](C(=O)N2CC3(CCC3)C2)CC[C@@H]1n1cc(C(N)=O)c(Nc2ccc(Cl)cc2)n1 (single isomer, unassigned) [Example 35-17, 1-[(1S,2S,4S or 1R,2R,4R)-4-(2-azaspiro[3.3]hept-2-ylcarbonyl)-2-cyanocyclohexyl]-3-[(4-chlorophenyl)amino]-1H-pyrazole-4-carboxamide] | 66 | 480
N#C[C@H]1CCCC[C@@H]1n1cc(C(N)=O)c(Nc2ccc3c(c2)CN(CC(F)(F)F)C3=O)n1 (single isomer, unassigned) [Example 17-20, 1-[(1S,2S or 1R,2R)-2-cyanocyclohexyl]-3-{[1-oxo-2-(2,2,2-trifluoroethyl)-2,3-dihydro-1H-isoindo1-5-yl]amino}-1H-pyrazole-4-carboxamide] | 0.17 | 0.79
N#C[C@@H]1C(n2cc(C(N)=O)c(Nc3ccccc3)n2)CCC[C@@H]1O (mixture of isomers) [Example 2-11, 1-[(1S,2S,3S and 1R,2R,3R)-2-cyano-3-hydroxycyclohexyl]-3-(phenylamino)-1H-pyrazole-4-carboxamide] | 5 | 49
N#C[C@H]1CCCC[C@@H]1n1cc(C(N)=O)c(Nc2ccc(Cl)nc2)n1 (single isomer, unassigned) [Example 17-42, 3-[(6-chloropyridin-3-yl)amino]-1-[(1S,2S or 1R,2R)-2-cyanocyclohexyl]-1H-pyrazole-4-carboxamide] | 18 | 178
C[C@](O)(c1ccc(Nc2nn([C@H]3CC[C@H](O)C[C@@H]3C#N)cc2C(N)=O)cc1)C(F)(F)F (single isomer, unassigned) [Example 33-12, 1-[(1S,2S,4S or 1R,2R,4R)-2-cyano-4-hydroxycyclohexyl]-3-({4-[(1S or 1R)-2,2,2-trifluoro-1-hydroxy-1-methylethyl]phenyl}amino)-1H-pyrazole-4-carboxamide] | 0.45 | 2
N#C[C@@H]1C(n2cc(C(N)=O)c(Nc3ccccc3)n2)CCC[C@H]1O (mixture of isomers) [Example 2-9, 1-[(1S,2S,3R and 1R,2R,3S)-2-cyano-3-hydroxycyclohexyl]-3-(phenylamino)-1H-pyrazole-4-carboxamide] | 16 | 202
C[C@@](O)(c1ccc(Nc2nn([C@H]3CC[C@@H](N4CCC4)C[C@@H]3C#N)cc2C(N)=O)cc1)C(F)(F)F (single isomer, unassigned) [Example 28-76, 1-[(1S,2S,4R or 1R,2R,4S)-4-azetidin-1-yl-2-cyanocyclohexyl]-3-({4-[(1R or 1S)-2,2,2-trifluoro-1-hydroxy-1-methylethyl]phenyl}amino)-1H-pyrazole-4-carboxamide] | 0.04 | 2
C[C@](O)(c1ccc(Nc2nn([C@H]3CC[C@H](N4CCC4)C[C@@H]3C#N)cc2C(N)=O)cc1)C(F)(F)F (single isomer, unassigned) [Example 28-78, 1-[(1S,2S,4S or 1R,2R,4R)-4-azetidin-1-yl-2-cyanocyclohexyl]-3-({4-[(1S or 1R)-2,2,2-trifluoro-1-hydroxy-1-methylethyl]phenyl}amino)-1H-pyrazole-4-carboxamide] | 0.2 | 7
C[C@](O)(c1ccc(Nc2nn([C@H]3CC[C@@H](N4CCC4)C[C@@H]3C#N)cc2C(N)=O)cc1)C(F)(F)F (single isomer, unassigned) [Example 28-57, 1-[(1S,2S,4R or 1R,2R,4S)-4-azetidin-1-yl-2-cyanocyclohexyl]-3-({4-[(1S or 1R)-2,2,2-trifluoro-1-hydroxy-1-methylethyl]phenyl}amino)-1H-pyrazole-4-carboxamide] | 0.15 | 8
N#C[C@H]1C[C@@H](N2CC3(CCC3)C2)CC[C@@H]1n1cc(C(N)=O)c(Nc2ccc([C@@H](O)C(F)(F)F)cc2)n1 (single isomer, unassigned) [Example 28-60, 1-[(1S,2S,4S or 1R,2R,4R)-4-(2-azaspiro[3.3]hept-2-yl)-2-cyanocyclohexyl]-3-({4-[(1R or 1S)-2,2,2-trifluoro-1-hydroxyethyl]phenyl}amino)-1H-pyrazole-4-carboxamide] | 0.2 | 9
C[C@](O)(c1ccc(Nc2nn([C@H]3CC[C@@H](O)C[C@@H]3C#N)cc2C(N)=O)cc1)C(F)(F)F (single isomer, unassigned) [Example 25-8, 1-[(1S,2S,4R or 1R,2R,4S)-2-cyano-4-hydroxycyclohexyl]-3-({4-[(1S or 1R)-2,2,2-trifluoro-1-hydroxy-1-methylethyl]phenyl}amino)-1H-pyrazole-4-carboxamide] | 0.6 | 4
CC1(C)CN([C@@H]2CC[C@H](n3cc(C(N)=O)c(Nc4ccc([C@@](C)(O)C(F)(F)F)cc4)n3)[C@@H](C#N)C2)C1 (single isomer, unassigned) [Example 28-62, 1-[(1S,2S,4R or 1R,2R,4S)-2-cyano-4-(3,3-dimethylazetidin-1-yl)cyclohexyl]-3-({4-[(1R or 1S)-2,2,2-trifluoro-1-hydroxy-1-methylethyl]phenyl}amino)-1H-pyrazole-4-carboxamide] | 0.15 | 12
N#C[C@@H]1CCCC[C@H]1n1cc(C(N)=O)c(Nc2ccc(Cl)nc2)n1 (single isomer, unassigned) [Example 17-44, 3-[(6-chloropyridin-3-yl)amino]-1-[(1R,2R or 1S,2S)-2-cyanocyclohexyl]-1H-pyrazole-4-carboxamide] | 3 | 18
N#C[C@H]1C(n2cc(C(N)=O)c(Nc3ccccc3)n2)CCC[C@H]1O (mixture of isomers) [Example 2-8, 1-[(1S,2R,3R and 1R,2S,3S)-2-cyano-3-hydroxycyclohexyl]-3-(phenylamino)-1H-pyrazole-4-carboxamide] | 174 | 635
CC(C)(c1ccc(Nc2nn([C@@H]3CCCC[C@H]3C#N)cc2C(N)=O)cc1)[C@H](O)C(F)(F)F (single isomer, unassigned) [Example 17-28, 1-[(1R,2R or 1S,2S)-2-cyanocyclohexyl]-3-({4-[(2S or 2R)-3,3,3-trifluoro-2-hydroxy-1,1-dimethylpropyl]phenyl}amino)-1H-pyrazole-4-carboxamide] | 3 | 30
N#C[C@@H]1CCCC[C@H]1n1cc(C(N)=O)c(Nc2ccc3c(c2)CN(CC(F)(F)F)C3=O)n1 (single isomer, unassigned) [Example 17-21, 1-[(1R,2R or 1S,2S)-2-cyanocyclohexyl]-3-{[1-oxo-2-(2,2,2-trifluoroethyl)-2,3-dihydro-1H-isoindo1-5-yl]amino}-1H-pyrazole-4-carboxamide] | 1 | 4
N#C[C@H]1C[C@@H](O)CC[C@@H]1n1cc(C(N)=O)c(Nc2ccc(OC(F)F)cc2)n1 (single isomer, unassigned) [Example 33-7, 1-[(1S,2S,4S or 1R,2R,4R)-2-cyano-4-hydroxycyclohexyl]-3-{[4-(difluoromethoxy)phenyl]amino}-1H-pyrazole-4-carboxamide] | 11 | 75
